One test concerns TK− VZV strain. As to conditions: read-out: Antiviral Activity EC50, TK− VZV Strain; HEL cell cultures; concentration reducing virus plaque formation by 50%.
A further test concerns TK+ VZV strain. Conditions: read-out: Antiviral Activity EC50, TK+ VZV Strain; HEL cell cultures; concentration reducing virus plaque formation by 50%.

The values below come from paper PMC6273621, “Synthesis and the Biological Activity of Phosphonylated 1,2,3-Triazolenaphthalimide Conjugates” (Molecules, 2016).

What is called EC50 is the midpoint of the concentration-response curve. Regarding `CN(C)CCN1C(=O)c2cccc3cc(N)cc(c23)C1=O` [Amonafide, reference compound], the half-maximal effective concentration (EC50) with TK− VZV strain is 6.48 µM; in the test on TK+ VZV strain it was 3.18 µM.
